Ab-14 light chain CDR variants: yeast mating affinities

Data: MIT Lincoln Laboratory AlphaSeq set, Engelhart et al. 2022, doi:10.1038/s41597-022-01779-4, as distributed in FLAb.

Target peptide (SARS-CoV-2 spike, HR2 region): PDVDLGDISGINAS

Parent scFv Ab-14: VH joined to VL by the linker GGGGSGGGGSGGGGS. Changes lie in the light chain CDRs alone.
VH: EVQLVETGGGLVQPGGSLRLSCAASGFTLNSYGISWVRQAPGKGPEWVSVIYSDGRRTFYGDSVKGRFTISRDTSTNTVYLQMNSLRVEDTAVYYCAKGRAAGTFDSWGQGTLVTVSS
VL: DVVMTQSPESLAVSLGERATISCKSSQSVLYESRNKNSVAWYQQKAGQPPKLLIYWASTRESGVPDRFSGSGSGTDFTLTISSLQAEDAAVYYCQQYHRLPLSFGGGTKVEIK

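The starting antibody came from a phage panning campaign against this peptide. Library AAYL50 holds single substitutions and randomly drawn double and triple substitutions in the CDRs. The scFvs were displayed on barcoded MATa yeast, the peptide on MATalpha yeast. Binding brings cells together so that they mate, and sequencing counts the barcode pairs among the diploids. A regression on co-assayed BCL2-family reference pairs converts the normalised counts of each replicate to an apparent Kd. Mating was done three times.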

Substitutions are numbered in sequence along the VL above, starting at 1 (not Kabat).
Scale: log10 of Kd in nM, estimated from mating counts; low values are strong binders.
"ND" means that the variant was in the library but no mating with the target was seen in that replicate; the authors take this as a sign of poor binding, and no number exists.

| changes | log10 Kd, replicates |
|---|---|
| S28T+W56L+S58N | 3.08 2.57 2.57 |
| A40H+T59I+L102T | ND ND ND |
| R34V+K36Y | 1.08 1.16 1.37 |
| Q27E+L30E+S62M | 1.49 1.71 1.71 |
| Q96C+Y97K | ND ND ND |
| S38E+A40L+S103E | ND 5.27 5.10 |
| K24C+W56I | 2.95 2.47 2.70 |
| S33H+N37C+A40F | ND ND ND |
| S28L+Y31P+S62Q | 0.44 0.66 0.53 |
| T59H+L102W+S103W | 3.04 3.25 3.46 |
| S25L+Y31E+S62F | -0.09 0.21 0.01 |
| Q95D+Q96R | ND 4.09 5.26 |
| N35Q+S38P+R60Y | ND ND 3.47 |
| S28Q+L30G+S38W | ND ND ND |
| E32L+A57T+S58Q | 3.71 2.88 3.44 |
| K36H+S62F+L102N | 1.17 1.55 1.83 |
| K24F+R34A+V39H | ND ND 4.59 |
| Q27Y+S58W+T59M | 2.09 2.08 2.30 |
| K36R+S62M+S103D | 0.91 1.25 1.20 |
| L30I+Y31D+L100T | 1.55 1.73 1.31 |
| S26I+K36E+R60K | 2.82 2.42 2.51 |
| N35H+A40T+Q96F | ND ND ND |
| V29N+S38R+S103Y | 4.37 2.39 3.57 |
| N35F+N37S+S62Y | 2.74 ND ND |

Second part, the sequence after the result:

| log10 Kd, replicates | changes |
|---|---|
| ND ND ND | W56R+R60E+Q96H |
| 1.47 1.43 1.68 | S26G+S33Y+R34F |
| ND ND ND | Q27Y+R34L+L102C |
| ND ND ND | S28R+V29E+A40V |
| 4.95 5.10 5.59 | V39G+A40W+Y97T |
| 0.78 1.15 1.17 | Y31P+S62R+L100M |
| ND ND 4.61 | E61W+S62F+L100D |
| ND ND ND | Q27H+R60F+E61W |
| ND 4.35 ND | H98C+P101Y+L102P |
| ND ND ND | L30H+N37D+Y97E |
| 1.67 1.67 1.52 | K24T+S33A |
| 2.70 2.44 2.37 | S25K+E61D+H98I |
| 4.20 ND ND | K24W+Y97C+L102V |
| ND 4.14 4.07 | N35G+A40N+W56E |
| ND ND 5.01 | V29C+L102E+S103K |
| 1.40 1.80 2.21 | K24V+H98C |
| 2.88 4.22 3.97 | N35G+S58C+E61Y |
| ND ND ND | S26Y+S28Y+Y97Q |
| 2.16 2.11 2.18 | Q27V+S58Y+R99T |
| 3.14 2.52 3.46 | S33W+S58K+T59Y |
| ND ND ND | S33M+A40D |
| 1.05 1.21 1.22 | E32A+S58E |
| ND ND ND | N37Y+S38W+H98L |
| 4.61 ND 4.50 | N37H+S58V+S103Y |

Excerpt, the final 5 entries:

changes,"log10 Kd, replicates"
S33W+S58K+T59Y,3.14 2.52 3.46
S33M+A40D,ND ND ND
E32A+S58E,1.05 1.21 1.22
N37Y+S38W+H98L,ND ND ND
N37H+S58V+S103Y,4.61 ND 4.50

As a blank, each scFv also met three strains without target: over library AAYL50, 18% of these pairings were detected, typically at 4.19 and seldom below 2.99.